The target in experiment [1] is cyclophilin A (CYPA) (Homo sapiens, UniProt P62937). Nature of the experiment: CYPA-compound binary complex formation by SPR. The conditions noted are these: read-out: CYPA Binding Affinity. Summed up:
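Steady-state fit of SPR responses gave binding affinity. Analyte series: 50 μM downward, 2-fold, 10 points, running buffer HBS-P+ (0.05% Tween20, pH7.4, 2% DMSO), 60 s on/60 s off. Surface: biotinylated CypA-Avi captured at 4 μg/ml against a reference cell, regenerated with NaOH/guanidine.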
In general terms: SPR reads the build-up and loss of mass on a sensor chip optically.

Experiment [2] has as its target BRAF-GTP-KRAS-G12C complex (Homo sapiens, UniProt P01116+P62937, G12C). The experiment can be described thus: KRAS-BRAF complex disruption through competition with CYPA-compound by TR-FRET. The settings on record: read-out: BRAF-GTP-KRAS-G12C Disruption; biochemical BRAF-KRAS G12C-GTP disruption assay EC50, with CYPA. Summed up:
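Compound-driven loss of KRAS–BRAF RBD TR-FRET signal, Eu-anti-His/APC-anti-GST pair (10/50 nM, 1.5 h), following a 3 h room-temperature preincubation of 50 nM His6-KRAS G12C-GTP and 500 nM CypA in 25 mM Hepes pH 7.3 buffer. EC50 by 4-parameter fit. Variants used wild-type KRAS in place of G12C or no CypA.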
On the technique in general: Time-resolved FRET reads energy transfer from a long-lived donor to a nearby acceptor.

Experiment [3] concerns pERK in H358 cells. Nature of the experiment: pERK inhibition in H358 cells. The settings on record: read-out: Cellular pERK inhibition, 4 hours treatment. Summed up: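 Human lung cancer H358 cells in RPMI/10% FBS were exposed to compound or DMSO for 4 h. Fixed and permeabilized cells were stained overnight at 4 C with anti-phospho-ERK1/2 (Thr202/Tyr204). Near-infrared imaging read the pERK signal at 800 nm, with DRAQ5 at 700 nm.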

Consider `CC(C)[C@@H](C(=O)N[C@H]1Cc2cc(O)cc(c2)-c2ccc3c(C(C)(C)C#N)cn(c3c2)CC(C)(C)COC(=O)[C@@H]2CCCN(N2)C1=O)N(C)C(=O)[C@@H]1CCCN(C(=O)CCl)C1`, for which the Kd in experiment [1] is 5 to 15 µM. The EC50 in experiment [2] fell in the range of 0.5 to 5 µM. In experiment [3], the IC50 is above 10 µM.
The like results for `CC(C)[C@@H](C(=O)N[C@H]1Cc2cc(O)cc(c2)-c2ccc3cc(-c4ccccc4)n(c3c2)C[C@H](C)COC(=O)[C@@H]2CCCN(N2)C1=O)N(C)C(=O)C1CN(C(=O)CCl)C1` were, in that order, above 15 µM, below 0.5 µM and above 10 µM.
The like results for `COc1cccc(-c2cn3c4cc(ccc24)-c2cc(O)cc(c2)C[C@H](NC(=O)[C@H](C(C)C)N(C)C(=O)C2CN(C(=O)CCl)C2)C(=O)N2CCC[C@H](N2)C(=O)OCC(C)C3)c1` (stereo partly drawn) were, in that order, above 15 µM, below 0.5 µM and 1 to 10 µM.
As to `C=CC(=O)N1CC[C@H](C(=O)N(C)[C@H](C(=O)N[C@H]2Cc3cc(O)cc(c3)-c3ccc4c(c3)N(CC(C)(C)COC(=O)[C@@H]3CCCN(N3)C2=O)CC42CCCOC2)C(C)C)C1` (stereo partly drawn), in experiment [1], the Kd was below 5 µM. Further, the EC50 in experiment [2] is 0.5 to 5 µM. In experiment [3], the IC50 was below 1 µM.
As to `COc1ccc(C#N)c(-c2cn3c4cc(ccc24)-c2cc(O)cc(c2)C[C@H](NC(=O)[C@H](C(C)C)N(C)C(=O)C2CN(C(=O)[C@@H](C)Cl)C2)C(=O)N2CCC[C@H](N2)C(=O)OCC(C)(C)C3)c1`, the Kd in experiment [1] was 5 to 15 µM. The EC50 in experiment [2] lay in the range of 0.5 to 5 µM. Further, the IC50 in experiment [3] was above 10 µM.
The like results for `C=CS(=O)(=O)N1CC(C(=O)N(C)[C@H](C(=O)N[C@H]2Cc3cc(O)cc(c3)-c3ccc4nc(C)n(c4c3)CC(C)(C)COC(=O)[C@@H]3CCCN(N3)C2=O)C(C)C)C1` were, in that order, 5 to 15 µM, below 0.5 µM and above 10 µM.
Turning to `C=CC(=O)N1CC[C@@H](C(=O)N(C)[C@H](C(=O)N[C@H]2Cc3cc(O)cc(c3)-c3ccc4c(C(C)(C)C#N)cn(c4c3)CC(C)(C)COC(=O)[C@@H]3CCCN(N3)C2=O)C(C)C)C1`, the Kd in experiment [1] was above 15 µM. Moreover, the EC50 in experiment [2] fell in the range of 0.5 to 5 µM. Also, the IC50 in experiment [3] was above 10 µM.
The like results for `CC(C)[C@@H](C(=O)N[C@H]1Cc2cc(O)cc(c2)-c2ccc3c4c(n(c3c2)C[C@H](C)COC(=O)[C@@H]2CCCN(N2)C1=O)CCCC4=O)N(C)C(=O)C1CN(C(=O)CCl)C1` were, in that order, 5 to 15 µM, below 0.5 µM and above 10 µM.
The like results for `CC1COC(=O)[C@@H]2CCCN(N2)C(=O)[C@@H](NC(=O)[C@H](C(C)C)N(C)C(=O)C2CN(C(=O)CCl)C2)Cc2cc(O)cc(c2)-c2ccc3c(c2)c(cn3CC#N)C1` (stereo partly drawn) were, in that order, below 5 µM, below 0.5 µM and 1 to 10 µM.
The like results for `CON=C(c1cn2c3cc(ccc13)-c1cc(O)cc(c1)C[C@H](NC(=O)[C@H](C(C)C)N(C)C(=O)C1CN(C(=O)CCl)C1)C(=O)N1CCC[C@H](N1)C(=O)OCC(C)(C)C2)C1CC1` were, in that order, above 15 µM, below 0.5 µM and 1 to 10 µM.
In the case of `C=CC(=O)N1CC[C@H](C(=O)N(C)[C@H](C(=O)N[C@H]2Cc3cc(O)cc(c3)-c3ccc4c(c3)c(c(C#N)n4CC)CC(C)(C)COC(=O)[C@@H]3CCCN(N3)C2=O)[C@@H](C)CC)C1`, the Kd in experiment [1] is below 5 µM. Further, in experiment [2], the EC50 was below 0.5 µM. The IC50 in experiment [3] was below 1 µM.
The like results for `C=CC(=O)N1CC[C@H](C(=O)N(C)[C@H](C(=O)N[C@H]2Cc3cc(O)cc(c3)-c3ccc4c(c3)N(CC(C)(C)COC(=O)[C@@H]3CCCN(N3)C2=O)CC42COc3ccccc32)C(C)C)C1` (single isomer, unassigned) [353] were, in that order, 5 to 15 µM, below 0.5 µM and below 1 µM.
The like results for `CC(C)[C@@H](C(=O)N[C@H]1Cc2cc(O)cc(c2)-c2ccc3c(-c4ccc5scnc5c4)cn(c3c2)CC(C)(C)COC(=O)[C@@H]2CCCN(N2)C1=O)N(C)C(=O)C1CN(C(=O)CCl)C1` were, in that order, below 5 µM, below 0.5 µM and 1 to 10 µM.
